Data reported in patent publication US10407430B2, “Janus kinase 1 selective inhibitor and pharmaceutical use thereof” (YANG JI CHEMICAL CO., LTD., priority 2015, dated 2019).

Chains of the proteins cited; added tags and fusions are not shown. Lines headed by an entry give the natural chain unless they say otherwise; changes in a name come on top.
UniProt P29597: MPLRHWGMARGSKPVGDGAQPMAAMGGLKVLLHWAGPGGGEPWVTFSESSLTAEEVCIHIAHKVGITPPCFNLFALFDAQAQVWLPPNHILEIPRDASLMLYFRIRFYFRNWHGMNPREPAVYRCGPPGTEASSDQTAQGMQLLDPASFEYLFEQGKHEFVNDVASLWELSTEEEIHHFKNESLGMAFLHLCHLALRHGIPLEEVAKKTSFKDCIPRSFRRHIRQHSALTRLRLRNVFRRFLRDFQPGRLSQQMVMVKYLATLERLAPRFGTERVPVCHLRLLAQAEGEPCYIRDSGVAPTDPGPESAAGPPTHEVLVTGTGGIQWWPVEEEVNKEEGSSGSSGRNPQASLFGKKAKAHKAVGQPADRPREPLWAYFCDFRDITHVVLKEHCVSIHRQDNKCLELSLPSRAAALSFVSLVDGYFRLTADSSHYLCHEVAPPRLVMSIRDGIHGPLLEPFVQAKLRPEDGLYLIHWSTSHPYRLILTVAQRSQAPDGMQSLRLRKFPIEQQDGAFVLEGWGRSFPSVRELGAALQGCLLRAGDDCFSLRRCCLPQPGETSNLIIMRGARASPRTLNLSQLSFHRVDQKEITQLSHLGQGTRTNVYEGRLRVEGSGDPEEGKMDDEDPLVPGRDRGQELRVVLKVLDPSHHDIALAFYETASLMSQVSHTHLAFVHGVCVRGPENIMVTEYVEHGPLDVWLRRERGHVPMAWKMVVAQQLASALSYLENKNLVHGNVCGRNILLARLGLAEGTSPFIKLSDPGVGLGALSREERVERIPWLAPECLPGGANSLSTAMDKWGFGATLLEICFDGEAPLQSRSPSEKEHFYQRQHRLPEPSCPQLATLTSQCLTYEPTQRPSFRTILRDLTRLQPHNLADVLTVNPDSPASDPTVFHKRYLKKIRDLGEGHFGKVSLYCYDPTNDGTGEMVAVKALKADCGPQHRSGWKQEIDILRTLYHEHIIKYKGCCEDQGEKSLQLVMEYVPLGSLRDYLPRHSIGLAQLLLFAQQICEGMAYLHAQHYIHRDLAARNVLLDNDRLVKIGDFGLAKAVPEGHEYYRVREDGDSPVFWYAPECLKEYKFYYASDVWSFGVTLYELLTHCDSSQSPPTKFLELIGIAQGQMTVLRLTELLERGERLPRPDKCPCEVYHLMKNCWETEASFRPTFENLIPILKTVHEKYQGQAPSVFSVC

Molecular target: T1, Human TYK2 (Homo sapiens, UniProt P29597)
T1 construct: purchased Millipore, Germany
Experiment: In-vitro kinase inhibition test, TYK2
Format: biochemical
Details: for inhibition at 1 µM: read-out: TYK2 kinase-phosphorylation inhibitory level (% inhibition)

## CN(c1ncnc2[nH]ccc12)[C@H]1CCN(C(=O)CC#N)C1 [Example 31, (S)-3-(3-(methyl(7H-pyrrolo[2,3-d]pyrimidine-4-yl)amino)pyrrolidine-1-yl)-3-oxopropanenitrile]
  inhibition at 1 µM: 2%

## CN(c1ncnc2[nH]ccc12)[C@@H]1CCN(C(=O)CC#N)C1 [Example 1, (R)-3-(3-(methyl(7H-pyrrolo[2,3-d]pyrimidine-4-yl)amino)pyrrolidine-1-yl)-3-oxopropanenitrile]
  IC50: 111 nM
  inhibition at 1 µM: 84%
